Molecular target: T1, sigma-1 receptor (Mus musculus, UniProt O55242)
T1 construct: gene Sigmar1; native receptor in wild-type mouse brain crude synaptosomal membranes (P2 fraction)
Assay: [3H](+)-pentazocine competition radioligand binding in mouse brain membranes

Protein sequences, listed by entry. Tags and fused reporters are not part of them.
UniProt O55242, whole entry: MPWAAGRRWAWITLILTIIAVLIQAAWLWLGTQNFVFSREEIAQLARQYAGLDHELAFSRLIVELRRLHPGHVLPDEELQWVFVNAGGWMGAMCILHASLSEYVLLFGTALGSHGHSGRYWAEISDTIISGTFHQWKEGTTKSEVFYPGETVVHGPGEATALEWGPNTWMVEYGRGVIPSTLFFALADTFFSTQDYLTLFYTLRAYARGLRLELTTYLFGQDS

**Q.** For `CC(C)=CCN1CC[C@]2(C)c3cc(O)ccc3C[C@H]1[C@H]2C` [PTZ, (+)-pentazocine], which IC50 is on record?
**A.** 6.74 ± 0.37 nM

Source: PMC5122889, “Sigma-1 Receptor Agonism Promotes Mechanical Allodynia After Priming the Nociceptive System with Capsaicin” (Scientific Reports, 2016)
